The target of the assay is T1, C3a anaphylatoxin chemotactic receptor (Homo sapiens, UniProt Q16581).
T1 sequence (Q16581 whole entry): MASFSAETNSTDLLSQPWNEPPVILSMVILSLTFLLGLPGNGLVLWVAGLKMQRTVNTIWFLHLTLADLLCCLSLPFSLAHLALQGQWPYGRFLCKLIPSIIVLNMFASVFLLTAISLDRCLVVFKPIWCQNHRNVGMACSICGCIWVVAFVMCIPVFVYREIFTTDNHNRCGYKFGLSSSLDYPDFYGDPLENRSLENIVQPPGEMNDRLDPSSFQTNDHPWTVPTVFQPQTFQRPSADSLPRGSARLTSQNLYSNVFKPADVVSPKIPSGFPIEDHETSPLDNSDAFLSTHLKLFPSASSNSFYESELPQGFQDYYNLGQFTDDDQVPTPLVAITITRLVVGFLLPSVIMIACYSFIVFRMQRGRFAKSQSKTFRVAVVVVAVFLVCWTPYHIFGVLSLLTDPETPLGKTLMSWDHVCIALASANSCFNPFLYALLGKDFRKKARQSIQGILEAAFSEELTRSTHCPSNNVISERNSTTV
Briefly: Antagonist activity against C3AR in HMDMs assessed as inhibition of C3a-induced intracellular calcium release by Fluo-3 AM dye based FLIPR assay. In a few lines:
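Primary human monocyte-derived macrophages (CD14+ monocytes from donor buffy coat, differentiated 7 days with 100 ng/mL M-CSF) plated 5 × 10^4 cells/well overnight at 37 °C, loaded with 4 μM Fluo-3 AM for 1 h at 37 °C. Compounds preincubated 30 min before C3a (100 nM). Fluorescence (ex 495/em 520 nm) read ≥60 s. Duplicates per point, ≥3 experiments. IC50 from nonlinear concentration–response fit.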
On the technique in general: Calcium assays in cells follow changes in intracellular calcium, usually with a dye or a luminescent sensor.

For the compound `NC(N)=NCCC[C@H](NC(=O)c1ccc(C(c2ccccc2)c2ccccc2)o1)C(=O)O`, the IC50 (commonly the midpoint of a concentration-inhibition curve) turned out to be 2000 nM.

Source of the values: BindingDB's records for doi:10.1021/jm500956p (The University of Queensland, 2014).
